Laboratory results reported in ChEMBL document CHEMBL3046736, “Kinetic studies of novel inhibitors of endomorphin degrading enzymes” (Med Chem Res, 2012).

Sequences of proteins named here, by UniProt entry; tags and fusion partners are left off.
UniProt P27487, whole entry: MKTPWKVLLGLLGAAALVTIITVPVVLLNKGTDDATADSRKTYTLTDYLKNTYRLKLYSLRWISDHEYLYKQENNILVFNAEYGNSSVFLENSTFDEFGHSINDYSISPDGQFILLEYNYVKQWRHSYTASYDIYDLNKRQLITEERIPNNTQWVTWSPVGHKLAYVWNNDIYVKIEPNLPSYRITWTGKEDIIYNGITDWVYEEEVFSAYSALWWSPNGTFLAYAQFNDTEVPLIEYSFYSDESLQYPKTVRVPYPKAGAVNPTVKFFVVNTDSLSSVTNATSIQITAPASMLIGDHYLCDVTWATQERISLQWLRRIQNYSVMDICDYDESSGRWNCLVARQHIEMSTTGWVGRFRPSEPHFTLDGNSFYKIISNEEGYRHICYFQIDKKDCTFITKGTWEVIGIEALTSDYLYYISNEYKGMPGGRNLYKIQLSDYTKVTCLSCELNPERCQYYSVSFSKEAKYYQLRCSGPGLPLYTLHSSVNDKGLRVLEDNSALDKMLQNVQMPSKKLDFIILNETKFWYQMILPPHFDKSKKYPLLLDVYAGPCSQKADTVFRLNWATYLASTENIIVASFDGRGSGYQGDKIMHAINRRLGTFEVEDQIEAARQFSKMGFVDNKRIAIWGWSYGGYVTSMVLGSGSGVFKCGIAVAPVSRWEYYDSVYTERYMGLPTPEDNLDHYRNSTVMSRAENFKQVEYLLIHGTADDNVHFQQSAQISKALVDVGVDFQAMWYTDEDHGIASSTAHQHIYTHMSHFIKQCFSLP

Legend:
[1] = target: T1, Dipeptidyl peptidase 4 (Homo sapiens, UniProt P27487); experiment: Inhibition of DPP-4 (unknown origin) assessed as inhibition of endomorphin-1 degradation after 30 min
Method in brief: (§1)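 Purified commercial DPP IV (0.002 mg protein/ml) incubated with endomorphin and inhibitor, each from 1 mM solutions in 50 mM Tris–HCl pH 7.4, at 37°C for 0, 7.5, 15, 22.5 and 30 min. Stopped on ice with 1 M HCl, centrifuged. Rate constant k from linear regression of ln(A/A0) of peptide peak area versus time; t1/2 = ln2/k. Three independent experiments in duplicate.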

[2] = target: T1, Dipeptidyl peptidase 4; experiment: Inhibition of DPP-4 (unknown origin) assessed as inhibition of endomorphin-2 degradation after 30 min; method in brief: as §1

Work on CC[C@H](C)[C@H](N)C(=O)N1CCC[C@H]1C(=O)N[C@H](C(=O)O)[C@@H](C)CC [DIPROTIN A] yielded a Ki [1] of 2200 nM, an inhibition [1] of 96.8% and a Ki [2] of 2200 nM. It also gave an inhibition [2] of 97.1%.
